In article PMC10535824, “Tryptophan Substitution in CJ-15,208 (cyclo[Phe-D-Pro-Phe-Trp]) Introduces δ-Opioid Receptor Antagonism, Preventing Antinociceptive Tolerance and Stress-Induced Reinstatement of Extinguished Cocaine-Conditioned Place Preference” (Pharmaceuticals, 2023):

System: MOR, KOR, DOR
Assay: opioid receptor involvement in antinociception (KO mice / selective antagonist pretreatment), tail-withdrawal assay
Assay type: in vivo, mouse
Details: dose producing maximum antinociception, i.c.v., KOR KO mice or β-FNA, nor-BNI, naltrindole pretreatment
Experimental: Except for the Bta^4 analog, contributions of the MOR and KOR were assessed in knockout (KO) mice for those receptors; DOR contribution to the antinociceptive activity of the analogs was assessed by pretreating mice with naltrindole (20 mg/kg, i.p., −20 min) prior to administration of analog (Figure 3).
Assessment of DOR involvement in the agonist activity of each macrocyclic peptide was performed by pretreating additional wild-type mice with a single dose of naltrindole (20 mg/kg, i.p.) 20 min in advance of administration of the macrocyclic peptide.

SMILES: CN1CC[C@]23c4c5ccc(O)c4O[C@H]2[C@@H](O)C=C[C@H]3[C@H]1C5 [Morphine, reference compound]
- Receptors Involved in antinociception: MOR
